Binding of CDR-mutated scFvs to a peptide of the spike HR2 region

Binding partner: SARS-CoV-2 spike HR2 peptide, sequence PDVDLGDISGINAS.

Parent: Ab-95, a human scFv built as VH, a 15-residue (Gly4Ser)3 linker, VL. Only the CDRs of the light chain vary.
VH: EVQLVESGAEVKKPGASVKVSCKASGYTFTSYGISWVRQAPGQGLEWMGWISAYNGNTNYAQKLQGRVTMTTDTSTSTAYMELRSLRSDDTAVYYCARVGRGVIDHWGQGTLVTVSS
VL: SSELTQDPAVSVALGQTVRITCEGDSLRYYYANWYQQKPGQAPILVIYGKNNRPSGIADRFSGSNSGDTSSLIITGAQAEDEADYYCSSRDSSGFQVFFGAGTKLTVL

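The parent was found by panning a naive human phage display library on the peptide. AAYL52 was designed without a model: most single CDR substitutions and a random sample of double and triple ones. Affinity was read by AlphaSeq, a pooled yeast mating assay with surface-displayed partners. Pairs that bind mate more often; barcode pairs of the diploids are counted by sequencing. A regression on co-assayed BCL2-family reference pairs converts the normalised counts of each replicate to an apparent Kd. The assay was run in three technical replicates.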

Each variant's VL is given in full. All variants listed here change S89 of the VL, counted from its first residue. Values are apparent Kd, the geometric mean of the replicates that gave a signal; lower means stronger binding. Nonspecific signal, from three strains lacking the peptide, appeared in 28% of pairings of library AAYL52, centred on 8.2 µM (5% of these signals below 800 nM); values are not corrected for it. Parent in this assay: reference entry 200 nM, copy in this library 180 nM.

Variant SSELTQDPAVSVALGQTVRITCEGDSLRYYLANWYQQKPGQAPILVIYGKNNSPSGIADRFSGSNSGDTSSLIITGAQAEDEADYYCSPRDSSGFQVFFGAGTKLTVL gave 8.1 µM (3 of 3 replicates). For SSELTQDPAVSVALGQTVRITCEGDSLRYYYANWYQQKPGQAPILVIYGKNNRPSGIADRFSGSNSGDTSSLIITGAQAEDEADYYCSLDDSSGFWVFFGAGTKLTVL, the assay gave 500 nM (3 of 3 replicates). For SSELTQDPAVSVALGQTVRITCEGDSLRYYYANWYQQKPGQAPILVIYGKNNRPSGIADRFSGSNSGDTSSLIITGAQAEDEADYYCSDRNSSQFQVFFGAGTKLTVL, the assay gave 310 nM (3 of 3 replicates). For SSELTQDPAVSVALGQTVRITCEGDSLRYYYANWYQQKPGQAPILVIYGKNNRSSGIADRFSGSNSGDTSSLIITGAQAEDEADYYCSYRDSSQFQVFFGAGTKLTVL, the assay gave 2.6 µM (2 of 3 replicates). With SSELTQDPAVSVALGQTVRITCEGDSLRYYYANWYQQKPGQAPILVIYGFNNRISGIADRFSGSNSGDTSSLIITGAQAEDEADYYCSPRDSSGFQVFFGAGTKLTVL the result was 8.6 µM (2 of 3 replicates).

Variant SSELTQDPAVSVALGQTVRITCEGDSLRAYYANWYQQKPGQAPILVIYGKNNRPSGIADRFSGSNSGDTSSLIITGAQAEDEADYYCSNRDSSSFQVFFGAGTKLTVL gave 12 µM (2 of 3 replicates). With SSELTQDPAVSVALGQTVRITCEGDSLRYYYANWYQQKPGQAPILVIYGKNNRPSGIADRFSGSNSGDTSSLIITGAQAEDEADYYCSNRDSSGFQVFFGAGTKLTVL the result was 1.6 µM (2 of 3 replicates). Variant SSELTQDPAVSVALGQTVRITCEGDSLKYYYANWYQQKPGQAPILVIYGKKNRPSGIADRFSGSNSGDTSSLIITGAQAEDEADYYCSDRDSSGFQVFFGAGTKLTVL gave 4.0 µM (1 of 3 replicates). Variant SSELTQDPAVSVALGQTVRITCEGDSLRYYDANWYQQKPGQAPILVIYGKNNRPSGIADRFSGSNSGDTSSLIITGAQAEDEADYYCSERYSSGFQVFFGAGTKLTVL gave 9.2 nM (3 of 3 replicates). With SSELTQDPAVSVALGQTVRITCEGDSLRYFYAEWYQQKPGQAPILVIYGKNNRPSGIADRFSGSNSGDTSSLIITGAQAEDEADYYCSIRDSSGFQVFFGAGTKLTVL the result was 13 µM (2 of 3 replicates).

For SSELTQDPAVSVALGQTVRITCEGDSLRYYYAMWYQQKPGQAPILVIYGKNNRPSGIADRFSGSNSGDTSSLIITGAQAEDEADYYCSPRDSSSFQVFFGAGTKLTVL, the assay gave 36 µM (1 of 3 replicates). Variant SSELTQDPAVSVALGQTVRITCEGDSLRYYYANWYQQKPGQAPILVIYGKNNRPSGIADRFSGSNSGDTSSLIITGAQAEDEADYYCSNRDSSGFQVWFGAGTKLTVL showed 140 nM (3 of 3 replicates). With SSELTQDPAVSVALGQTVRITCEGDSLRYYPANWYQQKPGQAPILVIYGKNNRPSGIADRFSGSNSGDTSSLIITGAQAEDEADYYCIDRDSSGFQVFFGAGTKLTVL the result was 22 µM (2 of 3 replicates). With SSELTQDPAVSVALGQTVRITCEGDSLRYYYWNWYQQKPGQAPILVIYGKNNRPSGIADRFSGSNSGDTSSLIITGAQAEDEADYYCSGRDSSHFQVFFGAGTKLTVL the result was 4.4 µM (1 of 3 replicates). Variant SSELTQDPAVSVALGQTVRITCEGDSLRYYAANWYQQKPGQAPILVIYGINNRPSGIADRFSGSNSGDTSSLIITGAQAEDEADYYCSLRDSSGFQVFFGAGTKLTVL gave 190 nM (3 of 3 replicates).

With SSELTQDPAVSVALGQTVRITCEGDSLRYYYANWYQQKPGQAPILVIYGKNNRPSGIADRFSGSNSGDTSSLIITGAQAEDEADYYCSPRASSGFQVAFGAGTKLTVL the result was 590 nM (3 of 3 replicates). For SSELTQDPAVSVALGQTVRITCEGDSLRYYYANWYQQKPGQAPILVIYGGNNRPSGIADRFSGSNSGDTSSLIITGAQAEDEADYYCSERDSSGFQVGFGAGTKLTVL, the assay gave 220 nM (3 of 3 replicates). Variant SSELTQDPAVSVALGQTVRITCEGVSLRYYYANWYQQKPGQAPILVIYGKNNRESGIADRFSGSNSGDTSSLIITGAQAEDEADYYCSTRDSSGFQVFFGAGTKLTVL showed 1.1 µM (3 of 3 replicates). With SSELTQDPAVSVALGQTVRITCEGDSARYYYANWYQQKPGQAPILVIYGKNNRFSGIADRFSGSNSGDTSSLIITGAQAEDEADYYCSRRDSSGFQVFFGAGTKLTVL the result was 13 µM (1 of 3 replicates). For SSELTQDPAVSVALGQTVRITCEDDSLRYYYINWYQQKPGQAPILVIYGKNNRPSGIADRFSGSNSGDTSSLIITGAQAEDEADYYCSLRDSSGFQVFFGAGTKLTVL, the assay gave 1.6 µM (3 of 3 replicates).

Variant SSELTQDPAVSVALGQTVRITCMGDSLRYYYANWYQQKPGQAPILVIYGKNNRPSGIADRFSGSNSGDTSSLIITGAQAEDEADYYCSLRDSQGFQVFFGAGTKLTVL gave 1.5 µM (3 of 3 replicates). With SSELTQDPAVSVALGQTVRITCEGDSLRYYYANWYQQKPGQAPILVIYGHNNRPSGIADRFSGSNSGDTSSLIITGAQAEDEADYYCSYRDSSGFQVFFGAGTKLTVL the result was 4.7 µM (3 of 3 replicates). With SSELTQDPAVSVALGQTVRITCEGDSLGYYYANWYQQKPGQAPILVIYGKNVRPSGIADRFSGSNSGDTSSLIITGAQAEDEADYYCSIRDSSGFQVFFGAGTKLTVL the result was 3.6 µM (3 of 3 replicates).

Repeated from above, the 3 best binders with a signal in all replicates:

{"VL": "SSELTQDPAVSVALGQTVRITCEGDSLRYYDANWYQQKPGQAPILVIYGKNNRPSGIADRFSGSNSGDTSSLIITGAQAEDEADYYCSERYSSGFQVFFGAGTKLTVL", "Kd (apparent)": "9.2 nM", "detected": "3 of 3"}
{"VL": "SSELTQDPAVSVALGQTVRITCEGDSLRYYYANWYQQKPGQAPILVIYGKNNRPSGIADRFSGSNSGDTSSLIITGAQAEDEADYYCSNRDSSGFQVWFGAGTKLTVL", "Kd (apparent)": "140 nM", "detected": "3 of 3"}
{"VL": "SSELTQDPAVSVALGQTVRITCEGDSLRYYAANWYQQKPGQAPILVIYGINNRPSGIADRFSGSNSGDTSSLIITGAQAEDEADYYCSLRDSSGFQVFFGAGTKLTVL", "Kd (apparent)": "190 nM", "detected": "3 of 3"}

Reference: Engelhart et al. 2022, doi:10.1038/s41597-022-01779-4. File: FLAb, binding data.